Laboratory results reported in patent US20090196869A1, “ANTITUMOR COMBINATIONS CONTAINING TAXANE DERIVATIVES” (SANOFI-AVENTIS, priority 2006, published 2009).

Tests used:
[1] = Toxicity (drug deaths, body weight loss, highest non-toxic dose) in tumor-bearing nude mice; assay type: in vivo; conditions: Herceptin alone, day 17, 21, 25, 29
Method: (§1) The animals subjected to the experiment, generally mice, are subcutaneously grafted bilaterally with 30 to 60 mg of a tumor fragment on day 0. The animals bearing tumors are mixed before being subjected to the various treatments and controls. In the case of treatment of advanced tumors, tumors are allowed to develop to the desired size, animals having insufficiently developed tumors being eliminated. The selected animals are distributed at random to undergo the treatments and controls. Animals not bearing tumors may also be subjected to the same treatments as the tumor-bearing animals in order to be able to dissociate the toxic effect from the specific effect on the tumor. Chemotherapy generally begins from 3 to 22 days after grafting, depending on the type of tumor, and the animals are observed every day. The different animal groups are weighed 3 or 4 times a week until the maximum weight loss is reached, and the groups are then weighed at least once a week until the end of the trial.
The study was scheduled as a 3-arm dose-response: • acetyl cyclopropyl docetaxel alone (52.1-12.4 mg/kg/iv inj, day 17, 21, 25) • Herceptin® alone (40-2.5 mg/kg/sc inj, day 17, 21, 25, 29) • Combination with a simultaneous injection of both agents. The following end points have been used: • Toxicity was declared at dosages inducing >20% body weight loss or >10% drug death, • The Highest NonToxic Dose (HNTD) was determined by the log cell kill=(T−C)/[3.32×(tumor doubling time in days)] (T meaning the time of the treated mice to reach 1 g and C the time (26.2 days) of the control mice to reach the same size).

[2] = system: Human breast carcinoma UISO-BCA-1; assay: Antitumor activity in Human Mammary UISO-BCA-1 xenografted in nude mice (3-arm dose-response); assay type: in vivo; conditions: Herceptin alone, day 17, 21, 25, 29
Method: This efficacy may be quantified, for example, by the log10 cells killed, which is determined according to the following formula: […]
A product is considered to be active if log10 cells killed is greater than or equal to 0.7. A product is considered to be very active if log10 cells killed is greater than 2.8.
The combination, used at its own maximum tolerated dose, in which each of the constituents will be present at a dose generally not exceeding its maximum tolerated dose, will manifest therapeutic synergy when the log10 cells killed is greater than the value of the log10 cells killed of the best constituent when it is administered alone.
as §1, with “Animals not bearing tumors may also be subjected to the same treatments as the tumor-bearing animals in order to be able to dissociate the toxic effect from the specific effect on the tumor. Chemotherapy generally begins from 3 to 22 days after grafting, depending on the type of tumor, and the animals are observed every day.” left out
The tumors are measured 2 or 3 times a week until the tumor reaches approximately 2 g, or until the animal dies if this occurs before the tumor reaches 2 g. The animals are autopsied when sacrificed.
The tumor model used to evaluate each drug combination was selected, in general, on the basis of its responsiveness to each of the agents when used as monotherapy. Using i.v. intermittent schedules, full dose response trials were conducted for each single agent and each combination. In the present case, the selected tumor was a Human breast carcinoma UISO-BCA-1 derived from a malignant pleural effusion. The primary tumor was well-differentiated infiltrating ductal carcinoma of the breast. Radiotherapy post mastectomy was practiced. Three years after, chemotherapy to treat a left supraclavicular mass was done (10 courses with cytoxan, methotrexate, 5-Fu and Tamoxifen). […] This tumor model was established in nude mice from a 2.10^7 cell implant, and maintained by serial sc passage as tumor fragment.

[3] = sc 2.5 mg/kg/day (total 10.0 mg/kg)
[4] = sc 10.0 mg/kg/day (total 40.0 mg/kg)
[5] = sc 25.0 mg/kg/day (total 100.0 mg/kg)
[6] = sc 40.0 mg/kg/day (total 160.0 mg/kg)

Q: For trastuzumab [Herceptin ®], which “% bwl at nadir” value [1, 3] is on record?
A: +11.1%

Q: And the Drug deaths [1, 3]?
A: 0/8

Q: And the “% bwl at nadir” value [1, 4]?
A: +14.4%

Q: And the Drug deaths [1, 4]?
A: 0/8

Q: What about the “% bwl at nadir” value [1, 5] of the same substance?
A: +13.8%

Q: What about the Drug deaths [1, 5] of the same substance?
A: 0/8

Q: And the “% bwl at nadir” value [1, 6]?
A: 0.5%

Q: And the Drug deaths [1, 6]?
A: 0/7

Q: And the “(T-C) days” value [2, 3]?
A: 1.4 days

Q: What about the CR [2, 3] of the same substance?
A: 0/8

Q: What about the “TFS d121” value [2, 3] of the same substance?
A: 0/8

Q: What about the log cell kill [2, 3] of the same substance?
A: 0.1

Q: What about the “(T-C) days” value [2, 4] of the same substance?
A: 0.2 days

Q: What about the CR [2, 4] of the same substance?
A: 0/8

Q: And the “TFS d121” value [2, 4]?
A: 0/8

Q: What about the log cell kill [2, 4] of the same substance?
A: 0.0

Q: What about the “(T-C) days” value [2, 5] of the same substance?
A: 0.6 days

Q: And the CR [2, 5]?
A: 0/8

Q: And the “TFS d121” value [2, 5]?
A: 0/8

Q: And the log cell kill [2, 5]?
A: 0.0

Q: And the “(T-C) days” value [2, 6]?
A: 0.6 days

Q: And the CR [2, 6]?
A: 0/7

Q: What about the “TFS d121” value [2, 6] of the same substance?
A: 0/7

Q: What about the log cell kill [2, 6] of the same substance?
A: 0.0
